Molecular target: human GLP-1R (Homo sapiens, UniProt P43220)
Assay: Agonist activity on human GLP-1R, CRE-luciferase reporter assay (increase in intracellular cAMP as indicator)
Type: cell-based
Set-up: expressed in transfected cells

Amino acid sequences for entries named in this document (tags omitted). Residues count along the entry.
UniProt P43220, 24-463: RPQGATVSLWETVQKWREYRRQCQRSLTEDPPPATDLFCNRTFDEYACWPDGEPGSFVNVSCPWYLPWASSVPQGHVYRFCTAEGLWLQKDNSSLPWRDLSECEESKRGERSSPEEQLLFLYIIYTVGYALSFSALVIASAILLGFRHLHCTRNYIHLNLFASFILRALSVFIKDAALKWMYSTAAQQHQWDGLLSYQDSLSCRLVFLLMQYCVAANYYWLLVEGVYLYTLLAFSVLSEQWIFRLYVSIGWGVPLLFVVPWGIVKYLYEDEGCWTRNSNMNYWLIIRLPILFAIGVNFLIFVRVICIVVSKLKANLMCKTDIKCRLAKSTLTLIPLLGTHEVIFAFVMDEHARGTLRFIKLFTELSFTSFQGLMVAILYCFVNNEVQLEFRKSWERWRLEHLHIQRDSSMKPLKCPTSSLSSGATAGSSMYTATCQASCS

CC[C@H](C)[C@H](NC(=O)[C@H](CO)NC(=O)[C@H](Cc1ccc(O)cc1)NC(=O)[C@H](CC(=O)O)NC(=O)[C@H](CO)NC(=O)[C@@H](NC(=O)[C@H](Cc1ccccc1)NC(=O)[C@@H](NC(=O)CNC(=O)[C@H](CCC(=O)O)NC(=O)[C@@H](C)NC(=O)[C@@H](N)Cc1ccc(O)cc1)[C@@H](C)O)[C@@H](C)CC)C(=O)N[C@@H](C)C(=O)N[C@@H](CCSC)C(=O)N[C@@H](CC(=O)O)C(=O)N[C@@H](CCCCN)C(=O)N[C@H](C(=O)N[C@@H](Cc1c[nH]cn1)C(=O)N[C@@H](CCC(N)=O)C(=O)N[C@@H](CCC(N)=O)C(=O)N[C@@H](CC(=O)O)C(=O)N[C@@H](Cc1ccccc1)C(=O)N[C@H](C(=O)N[C@@H](CC(N)=O)C(=O)N[C@@H](Cc1c[nH]c2ccccc12)C(=O)N[C@@H](CC(C)C)C(=O)N[C@@H](CC(C)C)C(=O)N[C@@H](C)C(=O)N[C@@H](CCC(N)=O)C(=O)N[C@@H](CCCCN)C(=O)N1CCC[C@H]1C(=O)N[C@@H](CO)C(=O)N[C@@H](CO)C(=O)NCC(=O)N[C@@H](C)C(=O)N1CCC[C@H]1C(=O)N1CCC[C@H]1C(=O)N1CCC[C@H]1C(=O)N[C@@H](CO)C(N)=O)C(C)C)[C@@H](C)CC [Compound 11] was tested, and the EC50 was 0.832 µM.

Reference: US20220016215A1, “GIP RECEPTOR AGONIST PEPTIDE COMPOUNDS AND USES THEREOF” (TAKEDA PHAARMACEUTICAL COMPANY LIMITED, priority 2018, published 2022)
